Laboratory results: paper PMC3931418 (Nature, 2014)

Amino acid sequences for entries named in this document (tags omitted).
UniProt P41143, whole entry D95A: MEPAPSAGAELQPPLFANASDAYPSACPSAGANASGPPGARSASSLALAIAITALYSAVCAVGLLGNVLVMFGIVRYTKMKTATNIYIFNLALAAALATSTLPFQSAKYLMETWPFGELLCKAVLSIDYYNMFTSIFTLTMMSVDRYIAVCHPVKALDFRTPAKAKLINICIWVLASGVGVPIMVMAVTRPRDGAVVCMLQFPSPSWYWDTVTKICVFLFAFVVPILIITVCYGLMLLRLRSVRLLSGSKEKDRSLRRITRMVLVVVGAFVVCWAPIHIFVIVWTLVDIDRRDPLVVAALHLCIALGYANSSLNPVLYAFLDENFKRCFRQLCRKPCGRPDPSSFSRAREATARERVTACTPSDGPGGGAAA
UniProt P41143, whole entry N314A: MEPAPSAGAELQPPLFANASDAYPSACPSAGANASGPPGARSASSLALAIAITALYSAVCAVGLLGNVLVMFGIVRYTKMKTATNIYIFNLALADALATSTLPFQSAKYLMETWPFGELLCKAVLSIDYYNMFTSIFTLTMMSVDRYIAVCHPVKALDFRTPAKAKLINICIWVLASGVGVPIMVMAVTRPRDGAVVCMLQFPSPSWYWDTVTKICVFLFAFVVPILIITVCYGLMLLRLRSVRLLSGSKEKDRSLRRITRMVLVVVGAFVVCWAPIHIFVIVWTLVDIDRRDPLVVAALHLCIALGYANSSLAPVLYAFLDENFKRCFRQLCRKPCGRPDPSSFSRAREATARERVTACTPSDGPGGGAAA
UniProt P41143, whole entry N310A: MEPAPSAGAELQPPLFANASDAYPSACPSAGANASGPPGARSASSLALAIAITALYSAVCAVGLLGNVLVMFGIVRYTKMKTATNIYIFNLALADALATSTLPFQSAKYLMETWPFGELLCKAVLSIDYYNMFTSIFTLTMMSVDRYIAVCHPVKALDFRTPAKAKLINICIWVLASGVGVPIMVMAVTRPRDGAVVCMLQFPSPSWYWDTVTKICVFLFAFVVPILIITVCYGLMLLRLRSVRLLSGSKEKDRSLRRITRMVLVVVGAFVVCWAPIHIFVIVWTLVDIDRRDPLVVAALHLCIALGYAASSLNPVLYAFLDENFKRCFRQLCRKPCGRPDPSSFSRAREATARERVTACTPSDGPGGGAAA
UniProt P41143, whole entry N131V: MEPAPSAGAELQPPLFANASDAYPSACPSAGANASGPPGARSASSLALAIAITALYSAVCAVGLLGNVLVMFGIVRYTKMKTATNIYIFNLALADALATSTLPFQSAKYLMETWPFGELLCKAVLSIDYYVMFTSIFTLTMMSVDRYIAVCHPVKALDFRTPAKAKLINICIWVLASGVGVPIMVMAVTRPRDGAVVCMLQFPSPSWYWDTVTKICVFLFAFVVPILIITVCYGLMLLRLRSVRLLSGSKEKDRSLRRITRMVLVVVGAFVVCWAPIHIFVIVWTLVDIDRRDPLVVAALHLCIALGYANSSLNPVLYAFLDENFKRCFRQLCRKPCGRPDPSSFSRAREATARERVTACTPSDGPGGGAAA

Experiments:
δ-OR Asp95Ala mutant [1] = target: T1, δ-OR Asp95Ala mutant (Homo sapiens, UniProt P41143, D95A); conditions: Asp95Ala sodium site mutant
δ-OR Asp95Ala mutant [2] = target: T1, δ-OR Asp95Ala mutant; assay: cAMP assay; type: cell-based
δ-OR Asn314Ala mutant = δ-OR Asn314Ala mutant (Homo sapiens, UniProt P41143, N314A)
δ-OR Asn310Ala mutant = δ-OR Asn310Ala mutant (Homo sapiens, UniProt P41143, N310A)
δ-OR N131V (HEK293) = δ-OR N131V (HEK293) (Homo sapiens, UniProt P41143, N131V); type: binding
[3] = cooperativity of sodium with DADLE

SMILES: O=C1/C(=C/c2ccccc2)C[C@@]2(O)[C@H]3Cc4ccc(O)c5c4[C@@]2(CCN3CC2CC2)[C@H]1O5 [BNTX]
- agonist activity at the β-arrestin pathway (δ-OR Asp95Ala mutant [1]): gained potent β-arrestin-biased agonist activity

SMILES: Oc1ccc2c3c1O[C@H]1c4oc5ccccc5c4C[C@@]4(O)[C@@H](C2)N(CC2CC2)CC[C@]314 [naltriben]
- agonist activity at the β-arrestin pathway (δ-OR Asp95Ala mutant [1]): gained potent β-arrestin-biased agonist activity

SMILES: Oc1ccc2c3c1O[C@H]1c4[nH]c5ccccc5c4C[C@@]4(O)[C@@H](C2)N(CC2CC2)CC[C@]314 [naltrindole]
- Gi signaling (δ-OR Asp95Ala mutant [2]): abrogation of Gi signaling
- agonist activity at the β-arrestin pathway (β-arrestin recruitment) (δ-OR Asn314Ala mutant): potent β-arrestin-biased agonist
- agonist activity at the β-arrestin pathway (β-arrestin recruitment) (δ-OR Asn310Ala mutant): potent β-arrestin-biased agonist

SMILES: [Na+] [sodium]
- Hill Coefficient (δ-OR N131V (HEK293)): 0.61 ± 0.02
- Na+ pKB ± SEM (δ-OR N131V (HEK293)): 1.11 ± 0.15
- pα ± SEM (δ-OR N131V (HEK293); [3]): 1.61 ± 0.86
- α (δ-OR N131V (HEK293); [3]): 0.025
- Kb (δ-OR N131V (HEK293); read-out: Na+ KB): 77 mM
